Assay results: patent US20080293646A1, “MACROLIDES” (Pfizer Inc, priority 2007, published 2008)

Amino acid sequences for entries named in this document (tags omitted). Residues count along the entry.
UniProt P08684, 2-503 limits assumed: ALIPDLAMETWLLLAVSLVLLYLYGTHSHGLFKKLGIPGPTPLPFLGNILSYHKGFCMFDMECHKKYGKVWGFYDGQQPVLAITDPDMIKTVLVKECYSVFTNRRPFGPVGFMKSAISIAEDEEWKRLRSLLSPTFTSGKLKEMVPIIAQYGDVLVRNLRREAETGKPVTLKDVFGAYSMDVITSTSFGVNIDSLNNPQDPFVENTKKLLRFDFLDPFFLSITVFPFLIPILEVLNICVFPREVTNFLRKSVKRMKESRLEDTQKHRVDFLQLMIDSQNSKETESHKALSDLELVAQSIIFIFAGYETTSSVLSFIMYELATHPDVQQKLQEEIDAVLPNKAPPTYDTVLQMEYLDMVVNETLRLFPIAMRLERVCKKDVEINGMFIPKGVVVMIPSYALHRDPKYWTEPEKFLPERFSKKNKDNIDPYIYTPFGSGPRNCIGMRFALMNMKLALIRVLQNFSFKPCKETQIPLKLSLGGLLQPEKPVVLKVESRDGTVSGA

Molecular target: CYP3A (Homo sapiens, UniProt P08684)
Assay: CYP3A time-dependent inhibition in human liver microsomes (midazolam probe)
Settings: for Predicted fold-change in AUC of CYP3A substrate: AUCinh/AUC from Ki and kinact, kdeg 0.0005 min^−1, [I] 0.17 μM; for CYP3A Time-Dependent Inhibition kinact / Ki: pooled human liver microsomes, midazolam probe substrate; for Ki: read-out: CYP3A Time-Dependent Inhibition Kl

Compound | Predicted fold-change in AUC of CYP3A substrate | CYP3A Time-Dependent Inhibition kinact [min⁻¹] | Ki [nM]
CC[C@H]1OC(=O)[C@H](C)C(=O)[C@H](C)[C@@H](O[C@@H]2O[C@H](C)C[C@H](N(C)C)[C@H]2O)[C@](C)(OC)C[C@@H](C)C(=O)[C@H](C)[C@H]2N(C3CN(Cc4ccnc5cccnc45)C3)C(=O)O[C@]12C | 5.4 | 0.028 | 2000
CC[C@H]1OC(=O)[C@H](C)C(=O)[C@H](C)[C@@H](O[C@@H]2O[C@H](C)C[C@H](N(C)C)[C@H]2O)[C@](C)(OC)C[C@@H](C)C(=O)[C@H](C)[C@H]2N(C3CN(Cc4c(Br)cnc5cccnc45)C3)C(=O)O[C@]12C | 4.2 | 0.029 | 2800
